Measured values reported in ChEMBL document CHEMBL1131617 (J Med Chem, 1998).

Chains of the proteins cited; added tags and fusions are not shown.
UniProt P33535, whole entry: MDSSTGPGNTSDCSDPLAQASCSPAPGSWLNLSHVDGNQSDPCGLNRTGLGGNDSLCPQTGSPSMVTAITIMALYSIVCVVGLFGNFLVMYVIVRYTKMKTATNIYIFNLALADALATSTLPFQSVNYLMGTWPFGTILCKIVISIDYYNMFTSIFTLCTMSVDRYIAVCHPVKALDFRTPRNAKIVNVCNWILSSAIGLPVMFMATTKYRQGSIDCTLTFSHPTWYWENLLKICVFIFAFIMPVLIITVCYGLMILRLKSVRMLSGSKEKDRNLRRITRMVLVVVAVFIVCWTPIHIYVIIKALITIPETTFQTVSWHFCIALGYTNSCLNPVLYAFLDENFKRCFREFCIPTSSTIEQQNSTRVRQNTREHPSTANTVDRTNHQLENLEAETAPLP

Biological target: Mu-type opioid receptor (Rattus norvegicus, UniProt P33535)
Assay: Relative affinity against Opioid receptor mu 1 in thalamus using [3H]DAMGO as radioligand
Format: tissue-based

SMILES: CC[C@H]1C[C@@H]2C[C@H]3c4[nH]c5ccc(OC)cc5c4CCN(C2)[C@@H]13 [IBOGAINE]
- IC50: 3.76 µM
